pKi: −log10 of the molar value.
Biological target: T1, Carbonic anhydrase (Methanobacterium thermoautotrophicum, UniProt Q50565)
T1 sequence (Q50565 whole entry): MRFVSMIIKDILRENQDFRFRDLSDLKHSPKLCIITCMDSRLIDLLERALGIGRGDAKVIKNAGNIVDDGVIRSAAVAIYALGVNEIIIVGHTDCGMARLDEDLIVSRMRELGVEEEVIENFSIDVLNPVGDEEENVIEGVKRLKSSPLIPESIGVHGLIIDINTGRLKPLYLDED
Set-up: species or system Methanothermobacter thermautotrophicus str. Delta H

O=S(=O)(O)O [SULFURIC ACID]
pKi: 0.02
